# Assay results: patent publication US5891679A, “TNF-alpha muteins and a process for preparing them” (priority 1993, dated 1999)
# Experiments:
# Trypanosoma musculi [1] = settings: cited from earlier work
# [2] = in vivo; cited from earlier work
# uromodulin = settings: cited from earlier work
# Trypanosoma musculi [3] = settings: administration in vivo during the course of infection; cited from earlier work
# [4] = test system: 3LL-R Lewis lung carcinoma cells; assay: Experimental metastasis inducing capacity on TNF resistant 3LL-R Lewis lung carcinoma cells; assay type: in vivo, mouse (C57bl/6); settings: TNF-α treated mice, 17 days
# Experimental: The metastasis-promoting effect of wild type and tip deleted mouse TNF-α was compared by use of the 3LL-R tumorigenic Lewis lung carcinoma cell line (wt and del mTNF-resistant Lewis lung carcinoma) (Remels et al., 1989). Thereto, 8 weeks old female C57bl/6 mice (5 mice/group) (Charles River, Deutschland) were injected intraperitoneally with either PBS (control group) or 5 μg of wild type or tip-deleted mouse TNF-α per mouse, 5 hours prior to the intravenous injection of 2.106 3LL-R cells. This tumor inoculum normally leads to a 100% mortality 25 days after injection of the control group. […] At this time, all mice were killed and the lung weight as well as the amount of cancer cell nodules in the lung was assessed.
# [5] = test system: Trypanosoma brucei rhodesiense; assay: In vitro trypanocidal assay, T. brucei rhodesiense; assay type: cell-based; settings: 5 h
# Text: (§1) The Trypanosoma brucei brucei AnTat 1.1 (EATRO 1125) pleomorphic bloodstream form was kindly provided to us by Dr. N. Van Meirvenne of the Institute for Tropical Medecine, Antwerp, Belgium, and the Trypanosoma brucei rhodesiense Trp 11 pleomorphic bloodstream form was kindly provided to us by Dr. E. Bajyana Songa (Dept. Molecular Biology, Free University of Brussels, Belgium)
# (§2) Two times 10^6 /ml purified bloodstream forms of Trypanosoma brucei brucei or T. brucei rhodesiense isolated 1 day before the first in vivo maximum peak is reached, were incubated for 5 h in phosphate buffered saline (PBS), 1% glucose, 1% normal mouse serum (incubation medium) at 37° C. with various concentrations of recombinant mTNF-α, recombinant hTNF-α or the TNF-α-derived tip peptides, all in the absence or the presence of anti-tip peptide polyclonal or monoclonal antibodies. After 5 h of incubation, the number of live (=moving) parasites was assessed (counting chamber) and compared the control wells in which only incubation medium was added to the trypanosomes. The spontaneous mortality in the control wells after 5 h was always lower than 10%. All treatments were done in quadruplicate and all reported in vitro trypanolysis experiments were repeated at least 3 times.
# [6] = test system: Trypanosoma brucei brucei; assay: In vitro trypanocidal assay, T. brucei brucei; assay type: cell-based
# Text: as §1, §2
# L929 cells = assay: L929 cell killing (cytotoxic/cytolytic/tumoricidal) assay; assay type: cell-based, mouse; settings: purified recombinant, produced in E. coli; assay not stated
# Experimental: L929 fibrosarcoma cells were obtained from the Rega Institute, Leuven, Belgium.
# After 18 h of culture at 37° C., viability of the cell cultures was assessed by dye uptake analysis. […] The plates were read spectrophotometrically at 577 nm with a Titertek multiscan MCC340 ELISA Reader (Flow Laboratories, McLean, Va.).
# [7] = test system: murine fibrosarcoma model, lung cancer model and melanoma models; settings: given within 3 days of tumor cell inoculation; cited from earlier work
# [8] = test system: human ovarian cancer xenografts; settings: peritoneal cavity of nude mice; cited from earlier work
# human melanoma cell line = settings: given 1 hour prior to intravenous inoculation; cited from earlier work
substance,measurement,setting,value
"TNF-α: Tumor necrosis factor-α, also known as cachectin, multifunctional cytokine",growth of T. musculi in vitro cultures,Trypanosoma musculi [1],inhibited the growth
same,effects in experimental animals,[2],"hypotension, leukopenia, and local tissue necrosis"
same,lectin-like affinity for uromodulin,uromodulin,has a lectin-like affinity for the glycoprotein uromodulin
same,parasite development,Trypanosoma musculi [3],net increase in parasite development
same,increase of lung weight and number of nodules,[4],at least 100 ×
"hTNF-α: recombinant human tumor necrosis factor-alpha, produced in E. coli",concentration at which 50% of the animals (parasites) are killed,[5],5000 pg/mL
same,concentration at which 50% of the animals (parasites) are killed,"[6]; T. brucei brucei, 5 h",5000 pg/mL
same,trypanocidal specific activity,[6]; in vitro trypanocidal assay,2×10^5 U/mg of protein
same,specific activity,L929 cells,2×10^7 units/mg
recombinant human TNF-α: recombinant human TNF-α of the cited literature,formation of metastases,[7],inhibition of formation of metastases
same,implantation of xenografts,[8],promoted the implantation of human ovarian cancer xenografts
same,pulmonary metastasis,human melanoma cell line,increase of pulmonary metastasis
